Measurements published in patent US7576105B2, “Benzyl substituted (piperidin-4-yl)aminobenzamido derivatives” (priority 2002, dated 2009).

The chains behind the UniProt entries cited, without tags or fusion partners. Where a name states a change or a piece, a line headed by the entry shows the natural chain unless it says otherwise.
UniProt P33533, whole entry, looked up: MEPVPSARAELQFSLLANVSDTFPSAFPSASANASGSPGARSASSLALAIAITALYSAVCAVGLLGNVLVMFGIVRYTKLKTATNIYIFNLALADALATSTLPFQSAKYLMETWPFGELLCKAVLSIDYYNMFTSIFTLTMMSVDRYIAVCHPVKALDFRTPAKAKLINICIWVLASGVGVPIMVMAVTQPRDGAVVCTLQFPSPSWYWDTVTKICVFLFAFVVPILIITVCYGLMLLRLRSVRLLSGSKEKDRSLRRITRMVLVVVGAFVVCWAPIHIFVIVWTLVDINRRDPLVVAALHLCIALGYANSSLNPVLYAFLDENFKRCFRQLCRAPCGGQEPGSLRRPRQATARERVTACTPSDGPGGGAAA
UniProt P33535: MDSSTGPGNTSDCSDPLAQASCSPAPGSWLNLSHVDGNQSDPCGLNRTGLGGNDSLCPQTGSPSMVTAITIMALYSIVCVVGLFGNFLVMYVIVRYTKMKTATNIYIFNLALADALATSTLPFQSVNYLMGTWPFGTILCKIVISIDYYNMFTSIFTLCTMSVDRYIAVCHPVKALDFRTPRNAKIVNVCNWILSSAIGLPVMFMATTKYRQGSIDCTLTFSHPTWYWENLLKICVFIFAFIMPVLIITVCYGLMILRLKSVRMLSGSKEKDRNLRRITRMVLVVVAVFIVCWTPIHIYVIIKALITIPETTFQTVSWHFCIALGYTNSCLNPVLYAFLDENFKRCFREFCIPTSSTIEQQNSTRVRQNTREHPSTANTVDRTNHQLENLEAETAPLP

Assays:
δ-opioid receptor = δ-opioid receptor (Rattus norvegicus, UniProt P33533); assay: Rat brain δ-opioid receptor binding assay
μ-opioid receptor = μ-opioid receptor (Rattus norvegicus, UniProt P33535); assay: Rat brain μ-opioid receptor binding assay
[1] = test system: acetylcholine bromide-induced abdominal constriction; assay: Mouse acetylcholine bromide-induced abdominal constriction assay (MAIT); assay type: in vivo; conditions: 150 μmole/Kg p.o., 30 min before 5.5 mg/kg i.p. acetylcholine bromide

CCCN1CCC(NC(c2ccc(C(=O)N(CC)CC)cc2)c2cccc(OC)c2)CC1 (stereo not shown)
δ-Opioid Receptor Binding % Inhibition @ 1 μM (δ-opioid receptor; 1 μM test compound, rat forebrain particulate preparation, [3H]DPDPE, 25° C.): 5%

N,N-Diethyl-3-[3-methoxyphenyl(1-propylpiperidin-4-yl)aminomethyl]benzamide
Ki (δ-opioid receptor): 3.99 µM
Ki (μ-opioid receptor): ≥ 10 µM

N,N-Diethyl-3-[phenyl(1-propylpiperidin-4-yl)aminomethyl]benzamide
Ki (δ-opioid receptor): 1.05 µM

N,N-diethyl-3-[3-fluorophenyl(1-propylpiperidin-4-yl)aminomethyl]benzamide
Ki (δ-opioid receptor): 1.03 µM

N,N-diethyl-3-[3-hydroxyphenyl(1-propylpiperidin-4-yl)aminomethyl]benzamide
Ki (δ-opioid receptor): 0.356 µM
Ki (μ-opioid receptor): 0.155 µM

N,N-diethyl-4-[3-fluorobenzyl(1-propylpiperidin-4-yl)amino]benzamide
Ki (δ-opioid receptor): 0.0718 µM
Ki (μ-opioid receptor): 1.38 µM
MAIT % Inhibition @150 μmol/kg [1]: 100%

N,N-diethyl-4-[3-trifluoromethylphenyl(1-propylpiperidin-4-yl)amino]benzamide
Ki (δ-opioid receptor): 2.19 µM
Ki (μ-opioid receptor): ≥ 10 µM

N,N-diethyl-4-[4-fluoromethylphenyl(1-propylpiperidin-4-yl)amino]benzamide
Ki (δ-opioid receptor): 0.11 µM
